## Measured vapor pressure values of organic chemicals

Data: OPERA 2.9 data sets, kmansouri/OPERA on GitHub.

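The OPERA project collected these measurements from public sources as training and test data for property models. A listed value is a point estimate from one report or more. How each value was measured is not recorded, so precision varies. A value may pool stereoisomers or salt forms, and the file does not say which form was measured. Some upstream entries may be estimates or bounds without being marked so.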

Vapor pressures (log10 mmHg) refer to near room temperature, 15 to 30 °C; higher is more volatile.
"via" names the databases from which the curators took the value.

For O=[N+]([O-])c1ccc(Oc2ccc(Cl)cc2Cl)cc1 [Nitrofen] the data give log VP -5.1 (log10 mmHg) (via OCHEM).
For C=COC(=O)CCl [Acetic acid, 2-chloro-, ethenyl ester] the data give log VP 0.719 (log10 mmHg) (via eChemPortal).
For ClC(Cl)Br [Bromodichloromethane] the data give log VP 1.699 (log10 mmHg) (via PubChem).
For N#C[S-].[K+] [Potassium thiocyanate] the data give log VP -10 (log10 mmHg) (via eChemPortal).
For Clc1cccc(-c2c(Cl)cccc2Cl)c1 [2,3',6-Trichlorobiphenyl] the data give log VP -3.315 (log10 mmHg) (via OCHEM).
For C[n+]1ccc(-c2cc[n+](C)cc2)cc1.[Cl-].[Cl-] [Paraquat dichloride] the data give log VP -7.062 (log10 mmHg) (via PubChem, eChemPortal).
For NC(=O)CCl [Chloroacetamide] the data give log VP -2.577 (log10 mmHg) (via eChemPortal).
For CC(C)(C)C1CCC(OC(=O)Cl)CC1 (configuration not stated) [4-tert-Butylcyclohexyl chloroformate] the data give log VP 0.176 (log10 mmHg) (via eChemPortal).
For CN1[C@@H]2C[C@@H](OC(=O)[C@H](CO)c3ccccc3)C[C@H]1[C@@H]1O[C@@H]12 [Scopolamine] the data give log VP -6.813 (log10 mmHg) (via eChemPortal).
For N#CC(Br)c1ccccc1 (configuration not stated) [Bromo(phenyl)acetonitrile] the data give log VP -1.921 (log10 mmHg) (via PubChem).
For Clc1cc(Cl)c(Cl)c(-c2c(Cl)cccc2Cl)c1 [2,2',3,5,6'-Pentachlorobiphenyl] the data give log VP -4.265 (log10 mmHg) (via OCHEM).
For CC(C)(Cl)[N+](=O)[O-] [2-Chloro-2-nitropropane] the data give log VP 1.139 (log10 mmHg) (via PubChem).
For Clc1ccc(-c2c(Cl)cccc2Cl)cc1 [2,4',6-Trichlorobiphenyl] the data give log VP -3.365 (log10 mmHg) (via OCHEM).
For CCOC(OCC)c1ccc2c(c1)OCO2 [1,3-Benzodioxole, 5-(diethoxymethyl)-] the data give log VP -2.522 (log10 mmHg) (via eChemPortal).
For Nc1cccc(C(F)(F)F)c1 [3-(Trifluoromethyl)aniline] the data give log VP -0.372 (log10 mmHg) (via eChemPortal).
For COc1ccc(CCN)cc1OC [Benzeneethanamine, 3,4-dimethoxy-] the data give log VP -3.894 (log10 mmHg) (via eChemPortal).
For COc1ccc([C@H](C)N)cc1 [(S)-(-)-1-(4-Methoxyphenyl)ethylamine] the data give log VP -1.751 (log10 mmHg) (via eChemPortal).
For Clc1cc(Cl)c(-c2c(Cl)c(Cl)c(Cl)c(Cl)c2Cl)c(Cl)c1 [2,2',3,4,4',5,6,6'-Octachlorobiphenyl] the data give log VP -5.585 (log10 mmHg) (via OCHEM).
For ClCc1ccccc1CCl [1,2-Bis(chloromethyl)benzene] the data give log VP -1.589 (log10 mmHg) (via eChemPortal).
For CC(C)CCON=O [3-Methylbutyl nitrite] the data give log VP 1.419 (log10 mmHg) (via PubChem).
For Cc1ccc(N)cc1Cl [3-Chloro-4-methylaniline] the data give log VP -1.071 (log10 mmHg) (via PubChem).
For c1cncc([C@@H]2CCCCN2)c1 [Anabasine] the data give log VP -2.523 (log10 mmHg) (via OCHEM).
For C=C(C)C(=O)OCC(F)(F)C(F)C(F)(F)F (configuration not stated) [1H,1H,3H-Perfluorobutyl 2-methylacrylate] the data give log VP 1.112 (log10 mmHg) (via ChemicalBook).
For CCCCOC(N)=O [Carbamic acid, butyl ester] the data give log VP 0.345 (log10 mmHg) (via eChemPortal).
For CN(C)C1CSSSC1.O=C(O)C(=O)O [Thiocyclam oxalate] the data give log VP -5.388 (log10 mmHg) (via OCHEM).
For Clc1cc(Cl)c2c(c1Cl)Oc1c(Cl)c(Cl)c(Cl)c(Cl)c1O2 [1,2,3,4,6,7,9-Heptachlorooxanthrene] the data give log VP -8.595 (log10 mmHg) (via OCHEM).
For Nc1ccc(Cc2ccc(N)c(Cl)c2)cc1Cl [4,4'-Methylenebis(2-chloroaniline)] the data give log VP -4.958 (log10 mmHg) (via eChemPortal).
For CC(=O)CC(c1ccc(Cl)cc1)c1c(O)c2ccccc2oc1=O (configuration not stated) [Coumachlor] the data give log VP -7.011 (log10 mmHg) (via OCHEM).
For CC(=O)c1cc2c(cc1C)C(C)(C)C(C)CC2(C)C (configuration not stated) [Tonalide] the data give log VP -3.291 (log10 mmHg) (via OCHEM, eChemPortal).
For COc1cc(OC)nc(NC(=O)NS(=O)(=O)c2ncccc2C(=O)N(C)C)n1 [Nicosulfuron] the data give log VP -6.097 (log10 mmHg) (via PubChem).
For C=C(C)C(=O)OCC(CC)CCCC (configuration not stated) [2-Ethylhexyl 2-methyl-2-propenoate] the data give log VP -1.312 (log10 mmHg) (via eChemPortal).
For OCC1=C[C@H](N[C@H]2C[C@H](CO)[C@@H](O[C@@H]3O[C@H](CO)[C@@H](O)[C@H](O)[C@H]3O)[C@H](O)[C@H]2O)[C@H](O)[C@@H](O)[C@@H]1O [Validamycin] the data give log VP -7.71 (log10 mmHg) (via OCHEM).
For CSC(C)(C)C=NO [Aldicarb oxime] the data give log VP -1 (log10 mmHg) (via OFMPub, PubChem).
For O=C(Cl)CCCCl [4-Chlorobutyryl chloride] the data give log VP -0.008 (log10 mmHg) (via eChemPortal).
For O=[N+]([O-])c1ccc2ccccc2c1 [2-Nitronaphthalene] the data give log VP -3.62 (log10 mmHg) (via PubChem).
For O=C(CCl)c1ccc(F)cc1 [2-Chloro-4'-fluoroacetophenone] the data give log VP -1.846 (log10 mmHg) (via eChemPortal).
For CCOP(OCC)OCC [Triethyl phosphite] the data give log VP 0.487 (log10 mmHg) (via PubChem, eChemPortal).
For Clc1ccc(-c2cc(Cl)c(Cl)c(Cl)c2Cl)c(Cl)c1 [2,2',3,4,4',5-Hexachlorobiphenyl] the data give log VP -4.745 (log10 mmHg) (via OCHEM).
For O=C(Cl)CCCl [Propanoyl chloride, 3-chloro-] the data give log VP 0.529 (log10 mmHg) (via eChemPortal).
For O=C(Cl)C(=O)Cl [Ethanedioyl dichloride] the data give log VP 2.176 (log10 mmHg) (via eChemPortal).
For CC(CC(=O)NCCCCCC(=O)[O-])CC(C)(C)C.OCC[NH+](CCO)CCO (configuration not stated) the data give log VP -4.306 (log10 mmHg) (via eChemPortal).
For N#Cc1cccc(C#N)c1 [1,3-Benzenedicarbonitrile] the data give log VP -2 (log10 mmHg) (via PubChem).
For O=C(O)CF [2-Fluoroacetic acid] the data give log VP 0.353 (log10 mmHg) (via PubChem).
For O=S(=O)(F)C(F)(F)C(F)(F)C(F)(F)C(F)(F)C(F)(F)C(F)(F)C(F)(F)C(F)(F)F [Perfluorooctanesulfonyl fluoride] the data give log VP 1 (log10 mmHg) (via ChemicalBook).

Excerpt, the opening 5 entries:

| compound | name | log VP (log10 mmHg) | via |
|---|---|---|---|
| O=[N+]([O-])c1ccc(Oc2ccc(Cl)cc2Cl)cc1 | Nitrofen | -5.1 | OCHEM |
| C=COC(=O)CCl | Acetic acid, 2-chloro-, ethenyl ester | 0.719 | eChemPortal |
| ClC(Cl)Br | Bromodichloromethane | 1.699 | PubChem |
| N#C[S-].[K+] | Potassium thiocyanate | -10 | eChemPortal |
| Clc1cccc(-c2c(Cl)cccc2Cl)c1 | 2,3',6-Trichlorobiphenyl | -3.315 | OCHEM |